Earlier results as cited in paper PMC1253704, “Nitromusk and Polycyclic Musk Compounds as Long-Term Inhibitors of Cellular Xenobiotic Defense Systems Mediated by Multidrug Transporters” (Environmental Health Perspectives, 2004).
Marks after values point to notes of the source that are not given here.

Details: ref Wang et al. (2003); cited from earlier work

C=C[C@H]1C[N@@]2CC[C@H]1C[C@@H]2[C@@H](O)c1ccnc2ccc(OC)cc12 [Quinidine, reference compound]
Log Kow: 2.8^b
